Target: human chemokine receptor CXCR7 (Homo sapiens (Human), UniProt P25106)
Assay: Tango CXCR7-bla U2OS beta-arrestin recruitment assay (beta-lactamase reporter, FRET), antagonism of CXCL12/SDF1-α;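 further: compounds preincubated 15 min before CXCL12 addition, then 22 h at 37 °C, FRET emission ratio read with CCF4-AM substrate after 2 h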
Assay type: cell-based
Settings: antagonistic effect on CXCR7; Tango CXCR7-bla U2OS cells, CXCL12/SDF1-α at its EC80

Sequences of proteins named here, by UniProt entry; tags and fusion partners are left off.
UniProt P25106, whole entry: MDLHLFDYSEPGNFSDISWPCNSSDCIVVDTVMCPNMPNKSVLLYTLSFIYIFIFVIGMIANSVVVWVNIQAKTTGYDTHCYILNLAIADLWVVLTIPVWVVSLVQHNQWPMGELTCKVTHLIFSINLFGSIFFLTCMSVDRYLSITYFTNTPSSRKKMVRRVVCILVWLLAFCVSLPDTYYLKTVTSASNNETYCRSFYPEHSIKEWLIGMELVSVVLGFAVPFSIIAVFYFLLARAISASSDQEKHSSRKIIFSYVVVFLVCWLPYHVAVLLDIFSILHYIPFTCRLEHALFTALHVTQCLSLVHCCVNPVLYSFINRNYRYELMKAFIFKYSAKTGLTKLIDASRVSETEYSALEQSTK

- IC50: 396 nM
SMILES: O=C(N[C@H]1CCN(CC2(F)CC2)C[C@@H]1C(=O)NC1(c2ncccn2)CC1)c1ncc(-c2ccc(F)cc2F)o1
